For this assay, the system named is GST-PHD-BD^N3007A (GST-PHD-BD^mut). The class given is binding, Human. The note with it: Supplementary file 1C, Nuc, N = 2. An excerpt: Human BPTF (Uniprot Q12830) PHD finger-bromodomain (PHD-BD) and PHD finger were cloned into pGEX6p with an N-terminal Glutathione S-Transferase (GST) tag and a PreScission protease cleavage site (Supplementary file 2A and Figure 1—figure supplement 2). BPTF BD with an N-terminal 6xHistidine (6His) tag and Tobacco Etch Virus (TEV) protease cleavage site was from Addgene (plasmid 39111). The Q5 site-directed mutagenesis kit (New England Biolabs [NEB]) was used for domain addition/removal or single amino acid substitutions. All constructs were expressed in E. coli BL21 (DE3) (Thermo Fisher Scientific or NEB). Cells were grown to OD600 ~1.0 and induced with 0.8 mM IPTG at 18 °C for ~16 hr in LB (or M9 minimal media for NMR). M9 media was supplemented with vitamin (Centrum Adult), 1 g/L ^15NH4Cl, and 5 g/L D-glucose. For constructs containing the BPTF PHD finger all growth media and buffers were supplemented with 100 μM ZnCl2. For purification of BPTF recombinants cells were lysed by sonication, and lysates were incubated with either glutathione agarose (Thermo Fisher Scientific) or Ni-NTA resin (Thermo Fisher Scientific) to respectively enrich for GST- and 6His-tagged proteins. Fusion proteins were eluted with reduced L-glutathione or imidazole as appropriate. […] Protein concentrations were determined by UV-Vis spectroscopy. […]

“H3K4me3tri^ac: histone H3 peptide H3K4me3K9acK14acK18ac (NMR version aa 1–34)” yielded a LogEC50 of -7.935.

For the origin of these results see publication PMC10876215, “Nucleosome conformation dictates the histone code” (eLife, 2024).
